Literature values in patent US5086047A, “Novel steroids” (Roussel Uclaf, Department des Brevets, priority 1989, dated 1992).

Test system: Aromatase
Conditions: attacks enzymatic processes other than that which leads from androgens to estrogens; cited from earlier work

CCC1(c2ccc(N)cc2)CCC(=O)NC1=O (stereo not shown) [Aminogluthetimide]
specificity to Aromatase: not being specific to Aromatase
